Experiment: physchem

| SMILES | pKa |
| --- | --- |
| Cc1nc2n(c(=O)c1CCN1CCC(c3noc4cc(F)ccc34)CC1)CCCC2 [RISPERIDONE] | 13 |
| CC[C@H]1OC(=O)[C@H](C)[C@@H](O[C@H]2C[C@@](C)(OC)[C@@H](O)[C@H](C)O2)[C@H](C)[C@@H](O[C@@H]2O[C@H](C)C[C@H](N(C)C)[C@H]2O)[C@](C)(OC)C[C@@H](C)C(=O)[C@H](C)[C@@H](O)[C@]1(C)O [CLARITHROMYCIN] | 14.1 |
